Test system: rats receiving infusion of fentanyl
Experiment: Fentanyl-induced constipation and anuria in metabolic cages
Assay type: in vivo, Sprague-Dawley rat
Conditions: fentanyl infusion 6 h; L-NAC at 60 and 90 min; samples over 5 h

CC(=O)N[C@@H](CS)C(=O)O [L-NAC, N-acetyl-L-cysteine]
Urine production (words, FIG. 13B): normalized by L-NAC injections

Reference: patent US20260256723A1, “THIOL-BASED COMPOUNDS AND COMPOSITIONS AND USES THEREOF” (CASE WESTERN RESERVE UNIVERSITY, priority 2022, published 2026)
